Experimental data: US12528818B2, “Compositions and methods for inhibition of RAS” (Leidos Biomedical Research, Inc., priority 2021, dated 2026)

Legend:
[1] = target: GppNHp-loaded KRAS4b (amino acids 1-169) G12C/C118S protein (Homo sapiens, UniProt P01116, C118S/G12C); assay: Covalent cysteine 12 modification by MALDI-TOF MS, GppNHp-loaded KRAS G12C; assay type: biochemical; conditions: 15 minutes reaction time, compound 95 or later using 1 μM proteins
[2] = target: T1, GTP-loaded KRAS4b (amino acids 1-169) G12C/C118S protein (Homo sapiens, UniProt P01116, C118S/G12C); assay: Covalent cysteine 12 modification by MALDI-TOF MS, GTP-loaded KRAS G12C; assay type: biochemical; conditions: 15 minutes reaction time, compound 95 or later using 1 μM proteins
T1 construct: KRAS4b (amino acids 1-169) G12C/C118S protein; made in house

[3] = target: GDP-loaded KRAS4b (amino acids 1-169) G12C/C118S protein (Homo sapiens, UniProt P01116, C118S/G12C); assay: Covalent cysteine 12 modification by MALDI-TOF MS, GDP-loaded KRAS G12C; assay type: biochemical; conditions: 15 minutes reaction time, compound 95 or later using 1 μM proteins
[4] = target: Avi-KRAS G12C (1-169) GppNHp/RAF1 RBD-3xFLAG (52-151) (Homo sapiens, UniProt P01116, G12C); assay: biochemical; conditions: Raf1-GppNHp-KRAS G12C disruption, Raf1 RBD-KRAS G12C-GppNHp disruption assay IC50

SMILES | GppNHp-KRAS G12C percent of modification [1] | GTP-KRAS G12C percent of modification [2] | GDP-KRAS G12C percent of modification [3] | IC50 [4] [nM]
C=CC(=O)N1C[C@H](C)N(c2nc(OC[C@@H]3CCCN3C)nc3c(F)c(-c4ccc(F)c5sc(N)c(C#N)c45)c(C(F)(F)F)cc23)C[C@H]1C [Compound 363, 4-(4-((2S,5R)-4-acryloyl-2,5-dimethylpiperazin-1-yl)-8-fluoro-2-(((S)-1-methylpyrrolidin-2-yl)methoxy)-6-(trifluoromethyl)quinazolin-7-yl)-2-amino-7-fluorobenzo[b]thiophene-3-carbonitrile] | A (percent of modification ≥70%) | C (10%≤percent of modification <50%) | A (percent of modification ≥70%) | < 500
C=CC(=O)N1C[C@@H](F)[C@@H](N(C)c2nc(OC[C@@]34CCCN3C[C@H](F)C4)nc3c(F)c(-c4ccc(F)c5sc(N)c(C#N)c45)c(Cl)cc23)C1 [Compound 365] | A (percent of modification ≥70%) | B (50≤percent of modification <70%) | A (percent of modification ≥70%) | < 500
C=CC(=O)N1C[C@H](C)N(c2nc(OCC34CCCN3CCC4)nc3c(F)c(-c4ccc(F)c5sc(N)c(C#N)c45)c(Cl)cc23)C[C@H]1C [Compound 366] | A (percent of modification ≥70%) | B (50≤percent of modification <70%) | A (percent of modification ≥70%) | < 500
C=CC(=O)N1C[C@H](C)N(c2nc(OC[C@@]34CCCN3C[C@H](OC)C4)nc3c(F)c(-c4ccc(F)c5sc(N)c(C#N)c45)c(Cl)cc23)C[C@H]1C [Compound 367] | A (percent of modification ≥70%) | B (50≤percent of modification <70%) | A (percent of modification ≥70%) | < 500
C=CC(=O)N1C[C@@H](F)[C@@H](N(CC)c2nc(OC[C@@]34CCCN3C[C@H](F)C4)nc3c(F)c(-c4ccc(F)c5sc(N)c(C#N)c45)c(Cl)cc23)C1 [Compound 368] | A (percent of modification ≥70%) | A (percent of modification ≥70%) | A (percent of modification ≥70%) | < 500
C=CC(=O)N1C[C@@H](F)[C@@H](N(C)c2nc(OCC34CCCN3CCC4)nc3cc(-c4ccc(F)c5sc(N)c(C#N)c45)c(C(F)(F)F)cc23)C1 [Compound 369] | A (percent of modification ≥70%) | A (percent of modification ≥70%) | A (percent of modification ≥70%) | < 500
C=CC(=O)N1C[C@@H](F)[C@@H](N(CC)c2nc(OC[C@@]34CCCN3C[C@H](F)C4)nc3cc(-c4ccc(F)c5sc(N)c(C#N)c45)c(Cl)cc23)C1 [Compound 370] | B (50≤percent of modification <70%) | B (50≤percent of modification <70%) | B (50≤percent of modification <70%) | < 500
C=CC(=O)N1C[C@@H](F)[C@@H](N(C)c2nc(OC[C@@]34CCCN3C[C@H](F)C4)nc3cc(-c4ccc(F)c5sc(N)c(C#N)c45)c(C#N)cc23)C1 [Compound 372] | A (percent of modification ≥70%) | A (percent of modification ≥70%) | A (percent of modification ≥70%) | < 500
C=CC(=O)N1CC[C@@H](N(C)c2nc(OC[C@@]34CCCN3C[C@H](F)C4)nc3c(F)c(-c4ccc(F)c5sc(N)nc45)c(C#N)cc23)[C@H]1C [Compound 373] | A (percent of modification ≥70%) | A (percent of modification ≥70%) | A (percent of modification ≥70%) | < 500
C=CC(=O)N1C[C@@H](F)[C@@H](N(C)c2nc(OCC34CCCN3CCC4)nc3c(F)c(-c4ccc(F)c5sc(N)c(C#N)c45)c(C(F)(F)F)cc23)C1 [Compound 374] | A (percent of modification ≥70%) | A (percent of modification ≥70%) | A (percent of modification ≥70%) | < 500
C=CC(=O)N1C[C@@H](F)[C@@H](N(CC)c2nc(OC[C@@]34CCCN3C[C@H](F)C4)nc3cc(-c4ccc(F)c5sc(N)c(C#N)c45)c(C(F)(F)F)cc23)C1 [Compound 375] | B (50≤percent of modification <70%) | B (50≤percent of modification <70%) | B (50≤percent of modification <70%) | < 500
